Experimental data reported in patent US9067894B1, “Compound, composition, and method of activating GIRK potassium channel and use of same for treating conditions of interest” (Vanderbilt University, priority 2013, dated 2015).

Molecular target: T1, GIRK1/4 (Homo sapiens, UniProt P48544+P48549)
T1 construct: expressed in transfected cells; host or cells: HEK-293
T1 sequence (P48549 1-501): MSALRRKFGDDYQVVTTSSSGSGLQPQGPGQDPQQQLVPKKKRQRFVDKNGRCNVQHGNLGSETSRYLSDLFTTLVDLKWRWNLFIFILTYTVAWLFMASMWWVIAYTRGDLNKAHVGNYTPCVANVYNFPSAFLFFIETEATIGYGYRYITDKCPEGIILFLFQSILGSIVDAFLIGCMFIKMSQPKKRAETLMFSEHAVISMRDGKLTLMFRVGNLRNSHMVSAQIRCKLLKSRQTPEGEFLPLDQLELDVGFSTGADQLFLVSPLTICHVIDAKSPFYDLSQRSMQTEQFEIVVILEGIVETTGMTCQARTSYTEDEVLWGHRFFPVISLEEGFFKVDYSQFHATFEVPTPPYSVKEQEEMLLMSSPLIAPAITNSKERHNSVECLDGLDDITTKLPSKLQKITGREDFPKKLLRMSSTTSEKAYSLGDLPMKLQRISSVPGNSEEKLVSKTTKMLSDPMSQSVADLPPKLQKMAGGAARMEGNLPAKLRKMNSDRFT
T1 sequence (P48544 1-419): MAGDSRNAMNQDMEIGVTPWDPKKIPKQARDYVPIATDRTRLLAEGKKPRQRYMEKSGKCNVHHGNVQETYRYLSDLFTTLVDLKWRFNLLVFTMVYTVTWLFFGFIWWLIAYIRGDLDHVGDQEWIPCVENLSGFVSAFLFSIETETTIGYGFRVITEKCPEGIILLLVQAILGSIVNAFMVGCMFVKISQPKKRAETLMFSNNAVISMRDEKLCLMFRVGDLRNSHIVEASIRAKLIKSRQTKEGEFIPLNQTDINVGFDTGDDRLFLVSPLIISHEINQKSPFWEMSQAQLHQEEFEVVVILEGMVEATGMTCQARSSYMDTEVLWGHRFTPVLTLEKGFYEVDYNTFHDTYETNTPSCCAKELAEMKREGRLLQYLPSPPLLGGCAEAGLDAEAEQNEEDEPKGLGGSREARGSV
Assay: Whole-cell voltage-clamp, GIRK1/4-expressing HEK-293 cells
Format: cell-based
Conditions: cell line GIRK1-4; average ± SEM
From the text: Cell Line Construction and Cell Culture. HEK-293 cells co-expressing human GIRK1/2 and rat mGlu8 were generated as previously described (Niswender et al., 2008). A HEK-293 cell line (ATCC, Manassas, Va.) expressing human GIRK1 and human GIRK2 was constructed by transfecting HEK-293 cells with GIRK1 and GIRK2 (Origene, Rockville, Md.) cloned into the pBudCE4.1 vector (Life Technologies, Carlsbad, Calif.) using FuGene 6 (Promega, Madison, Wis.) transfection reagent. […]
A single-cell suspension of HEK-293 cells stably transfected with the appropriate ion channels were plated into TC-treated 35 mm polystyrene dishes at ˜15% confluence and incubated overnight in a 5% CO2 cell culture incubator at 37° C. […] Whole cell currents were recorded in 20K extracellular solution at −70 mV using a Pico 1 amplifier (Tecella, Foothill Ranch, Calif.) controlled by WINWCP 4.X (University of Strathclyde, Glasgow, Scotland, UK). […] One day after transfection, cells were plate into 35 mm polystyrene dishes, incubated and recorded as described above. […]
Voltage-clamp data were analyzed by converting current amplitudes to current density by dividing by each cell's membrane capacitance estimated from capacitance compensation. […]

Question: `Cc1cc(NC(=O)Nc2ccc(F)c(F)c2)n(-c2ccccc2)n1` [VU0456810, 1-(3,4-difluorophenyl)-3-(3-methyl-1-phenyl-1H-pyrazol-5-yl)urea] was tested. Which EC50 did it give?
Answer: 1400 ± 1200 nM
